From US20020013350A1 (priority 1998, published 2002)

Test system: rice blast fungi (Pyricularia oryzae)
Assay type: in vivo
Conditions: 12.5 ppm, sprayed on rice (Kimmaze), inoculated 7 days after treatment

Cc1cccc2sc3nncn3c12 [Tricyclazole, 5-Methyl-1,2,4-triazolo[3,4-b]benzothiazole]
Actual controlling degree (%): 22%
